miR-122 sensor: blocks miR-122 activity in Huh7 sensor cells | Huh7 miR-122 Renilla luciferase sensor, 48 h; neutral wells = 0, positive control = 100 | activation (reporter increase), % at 12.5 µM | 340,000 tested, 0.3% active;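 active = mean replicate activation score at least 90 and every replicate individually at or above 90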;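 also: higher luciferase means less miR-122 activity so hits act as miR-122 inhibitors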
C2C12 statin: suppression of simvastatin myotoxicity. C2C12 myotubes + simvastatin, ATP luminescence, 48 h; scaled: DMSO 0, geranylgeraniol control 100. rescue of ATP level, % at 7.49 µM. 330,000 tested, 0.78% active;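 active = mean ATP rescue above about 67%, or every replicate alone reaching that limit, limit read from the data, passing the limit was not always enough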;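 also: myotubes were challenged with 10 µM simvastatin during compound exposure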
N-glyco inh: N-linked glycosylation inhibition; 360,000 tested, 0.23% active; reporter increase, % at 12.5 µM; D54 ERlucT glycosylation luciferase reporter, 24 h; percent of 100 nM tunicamycin response;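 active = mean luciferase reporter signal, scaled so untreated is 0 and the glycosylation-blocking control 100, at or above a set limit in every replicate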;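 also: luciferase carries N-glycosylation sites so blocking glycosylation raises the light; 0% = median of neutral control wells and 100% = median of 100 nM tunicamycin wells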
Cneo AK release: causes C. neoformans cell lysis; adenylate kinase release luminescence, 4 h; normalised: neutral wells 0, clomiphene wells 100; lysis activity, % at 15 µM; 360,000 tested, 0.2% active;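 active = mean lysis activity across replicates of at least 80%, whatever share of replicates individually reach that level; inactive = mean lysis activity below 80%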
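Assay system: Cryptococcus neoformans yeast cells / Dosing: single-point compound dose / Timing: 4 h at 37 °C static, read 1 h later / Measured by: luminescence of released adenylate kinase using an AK detection reagent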
Yeast UUG start: modulators of start codon recognition fidelity in yeast; AID 602363; activity score, % at 18.7 µM; S. cerevisiae UUG-firefly luciferase reporter, luminescence/redox ratio; actives 0.13% (n = 350,000);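 active = replicate mean at a twofold rise or more, about +100% in these data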;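 note: firefly luciferase made from a UUG start codon reports start codon fidelity; reporter light over untreated wells divided by growth signal over untreated wells; some hits fall short of that in this replicate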
* marks the source's active call; other numbers are inactive results; / = no result; [ ] = dose if it differs, or a comment. A selection: hits, their analogues and other compounds. The true share with any hit is near 1.2%.

#1 Cc1ccccc1NS(=O)(=O)c1ccc2c3c(cccc13)C(=O)N2C
#2 Cc1cccc(C)c1NC(=O)CNC(=O)c1ccc(S(=O)(=O)NCc2ccco2)cc1
#3 Cc1ccc(-c2cc(C(F)F)nc(NCC3CCCO3)n2)cc1 (stereo not drawn)
#4 COc1ccc(Cl)cc1C(=O)n1nc(C)cc1C
#5 CCc1nc(OCc2ccccc2)c2sc3nc4c(cc3c2n1)COC(C)(C)C4
#6 CC1(C)Cc2nc3sc4c(OCc5ccccc5)ncnc4c3cc2CO1
#7 CCc1ccc(NC(=O)C(CC)Sc2nc3cc4c(cc3c(=O)n2Cc2ccco2)OCO4)cc1 (stereo not drawn)
#8 CCc1ccccc1NC(=O)C(CC)Sc1nc2cc3c(cc2c(=O)n1Cc1ccco1)OCO3 (stereo not drawn)
assay / entry	1	2	3	4	5	6	7	8
Cneo AK release	-1.9	0.3	/	12.8	3.5	-12.7	-1.0	2.9
C2C12 statin	0.9	3.6	4.0	106.8*	7.7	73.7*	-54.8	45.3
N-glyco inh	42.3*	2.5	3.0	1.7	-6.6	1.1	5.4	-2.3
Yeast UUG start	-16.4	-15.3	/	-20.1	-22.5	-15.5	-6.8	-3.4
miR-122 sensor	/	5.9	3.1	1.1	5.0	-13.1	138.5*	11.1

Complete entries, looked up by structure. Order of values: Cneo AK release	C2C12 statin	N-glyco inh	Yeast UUG start	miR-122 sensor
Entry for `CCc1ccc(NC(=O)C(CC)Sc2nc3cc4c(cc3c(=O)n2Cc2ccco2)OCO4)cc1` (stereo not drawn) → -1.0	-54.8	5.4	-6.8	138.5*
Entry for `Cc1ccc(-c2cc(C(F)F)nc(NCC3CCCO3)n2)cc1` (stereo not drawn) → /	4.0	3.0	/	3.1

Next part.
#9 O=C(Nc1ccc2c(c1)OCO2)N[C@@H]1CC[C@@H](CC(=O)N2CCN(c3ccccc3)CC2)O[C@H]1CO
#10 CCN1CCCC1Cn1cnc2c([nH]c3ccc(Cl)cc32)c1=O (stereo not drawn)
#11 S=c1[nH]cc(-c2ccccc2)n1-c1ccccc1
#12 Cc1ccccc1C(=O)Nc1ccc(C(=O)N/N=C/c2ccc(O)c(Br)c2)cc1
#13 Clc1ccccc1CNc1ncnc2nc[nH]c12
#14 C[C@@H]1CN([C@@H](C)CO)C(=O)c2cc(NS(=O)(=O)c3cccs3)ccc2O[C@@H]1CN(C)Cc1ccc(-c2ccccc2)cc1
#15 CC(=O)N(C)c1ccc(OCC(O)COc2ccc(N(C)C(C)=O)cc2)cc1
#16 CC(=O)c1ccc(OCC(O)COc2ccc(C(C)=O)cc2)cc1
assay / entry	9	10	11	12	13	14	15	16
Cneo AK release	-5.3	-5.1	2.8	/	2.5	1.3	-0.3	-0.1
C2C12 statin	17.4	98.7*	97.9*	/	101.4*	47.0	125.3*	-2.5
N-glyco inh	/	-1.8	-1.3	-0.8	-1.2	/	-0.8	2.3
Yeast UUG start	17.1	-13.1	-14.5	/	-4.8	3.2	0.9	-10.6
miR-122 sensor	/	-2.4	-0.1	/	-1.2	3.2[16.7 µM]	1.5	4.7

#17 CC(=O)c1ccc(OCC(O)CN2CCN(CC(O)COc3ccc(C(C)=O)cc3)CC2)cc1 (stereo not drawn)
#18 CC(=O)c1ccc(OCC(O)CN2CCN(CCN3C(=O)c4cccc5cccc(c45)C3=O)CC2)cc1 (stereo not drawn)
#19 CC(C)OCC(O)CN1CCN(CCN2C(=O)c3cccc4cccc(c34)C2=O)CC1 (stereo not drawn)
#20 CC(C)(Oc1ccc(Cl)cc1)C(=O)OCC(=O)NCCc1ccccc1
#21 COc1ccc([C@H]2CC(=O)C=C(c3ccccc3)C2)cc1OC
#22 COc1ccc([C@H]2CC(=O)C=C(c3ccc(F)nc3)C2)cc1OC
#23 C[C@H]1CCCCO[C@@H](CN(C)S(C)(=O)=O)[C@@H](C)CN([C@@H](C)CO)C(=O)c2cc(N(C)C)ccc2O1
#24 O=S(=O)(c1cccc2nsnc12)N1CCOCC1
assay / entry	17	18	19	20	21	22	23	24
Cneo AK release	-1.2	/	-0.3	-0.3	-0.9	-0.9	-1.6	4.0
C2C12 statin	109.2*	/	12.3	7.0	79.7*	89.6*	-3.9	114.5*
N-glyco inh	0.2	56.1*	33.3*	0.8	-3.1	-0.2	/	-0.1
Yeast UUG start	-3.6	/	-19.6	-23.2	-13.6	-9.2	-17.7	-8.8
miR-122 sensor	-5.2	/	-4.7	0.6	-0.3	-1.1	-3.6[16.7 µM]	-8.5

#25 Cc1[nH]c2ccccc2c(=O)c1SC(F)(F)C(F)C(F)(F)F (stereo not drawn)
#26 CCOC(=O)c1sc(Nc2nc3c(OC)cccc3s2)nc1C
#27 COc1ccccc1-c1cc(C(F)(F)F)nc(S(=O)(=O)CCCC(=O)N2CCOCC2)n1
#28 COc1ccc(C(=O)/C(=C/c2cccs2)c2nc3ccccc3o2)cc1
#29 CN1C2CCC1/C(=C\c1ccccc1)C(=O)/C2=C\c1ccccc1
#30 C=CC(=O)N1C/C(=C/c2ccccc2)C(=O)/C(=C\c2ccccc2)C1
#31 CO[C@@H]1CN(C)C(=O)c2cc(NS(C)(=O)=O)ccc2OC[C@H](C)N(C(=O)CN(C)C)C[C@@H]1C
#32 COc1cccc(S(=O)(=O)N2CC[C@@H]3[C@@H](CO)Nc4ccc(Br)cc4[C@@H]32)c1
assay / entry	25	26	27	28	29	30	31	32
Cneo AK release	-0.9	-1.1	3.9	-1.6	1.8	/	-5.8	-5.3
C2C12 statin	104.0*	106.2*	90.2*	94.4*	67.2*	/	16.2	9.2
N-glyco inh	1.9	5.0	-6.5	-6.6	8.4	-18.8	/	/
Yeast UUG start	-13.5	-6.4	-24.4	-2.6	-4.4	/	0.5	-8.0
miR-122 sensor	-2.5	6.6	-6.8	-2.4	-4.2	-20.0	4.2[16.7 µM]	5.2[16.7 µM]

#33 O=C(C/C=N/OCc1c(Cl)cccc1Cl)c1cnc(-c2ccccc2)s1
#34 O=C(C/C=N/OCc1ccc(Cl)cc1)c1cnc(-c2ccccc2)s1
#35 O=C(Cc1ccccc1)N1CC[C@@H]2[C@@H](CO)Nc3ccc(-c4cccc(F)c4)cc3[C@@H]21
#36 N#Cc1ccc(-c2ccc3c(c2)[C@H]2[C@H](CCN2C(=O)Cc2ccccc2)[C@H](CO)N3)cc1
#37 O=C(Cc1ccccc1)N1CC[C@H]2[C@H](CO)Nc3ccc(-c4cccc(F)c4)cc3[C@H]21
#38 N#Cc1ccc(-c2ccc3c(c2)[C@H]2[C@H](CCN2C(=O)Cc2ccccc2)[C@@H](CO)N3)cc1
#39 N#Cc1ccc(-c2ccc3c(c2)[C@@H]2[C@@H](CCN2C(=O)Cc2ccccc2)[C@@H](CO)N3)cc1
#40 N#Cc1ccc(-c2ccc3c(c2)[C@@H]2[C@@H](CCN2C(=O)Cc2ccccc2)[C@H](CO)N3)cc1
assay / entry	33	34	35	36	37	38	39	40
Cneo AK release	1.3	-1.6	-8.9	1.5	-8.3	94.8*	89.3*	0.8
C2C12 statin	107.8*	-2.1	-4.9	19.4	26.1	-28.2	33.0	-0.6
N-glyco inh	1.0	-2.0	/	/	/	/	/	/
Yeast UUG start	-15.5	-11.0	-5.1	-10.8	-8.6	11.6	13.6	1.7
miR-122 sensor	0.6	1.8	109.2*[16.7 µM]	-12.2[16.7 µM]	-5.6[16.7 µM]	22.5[16.7 µM]	13.8[16.7 µM]	-7.8[16.7 µM]

#41 C[C@H](NC(=O)[C@H]1[C@H](CO)[C@H]2Cn3c(ccc(C4=CCCCC4)c3=O)[C@@H]1N2)c1ccccc1
#42 O=C(C[C@H]1CC[C@@H]2[C@H](COC[C@@H](O)CN2Cc2cccc(C(F)(F)F)c2)O1)NCc1ccc(Cl)cc1
#43 O=C(C[C@@H]1CC[C@@H]2[C@H](COC[C@@H](O)CN2Cc2cccc(C(F)(F)F)c2)O1)NCc1ccccc1
#44 O=C(C[C@@H]1CC[C@H]2[C@@H](COC[C@@H](O)CN2Cc2ccc(Oc3ccccc3)cc2)O1)Nc1nccs1
#45 O=C(C[C@@H]1CC[C@@H]2[C@H](COC[C@H](O)CN2Cc2cccc(C(F)(F)F)c2)O1)NCc1ccc(Cl)cc1
#46 O=C(C[C@@H]1CC[C@@H]2[C@H](COC[C@@H](O)CN2Cc2ccc(Oc3ccccc3)cc2)O1)Nc1nccs1
assay / entry	41	42	43	44	45	46
Cneo AK release	0.4	109.8*	0.0	2.1	82.9*	-0.4
C2C12 statin	-15.4	0.0	15.0	100.0*	14.3	39.8
N-glyco inh	/	/	/	/	/	/
Yeast UUG start	/	/	/	/	/	/
miR-122 sensor	0.6[16.7 µM]	-11.1[16.7 µM]	-0.9[16.7 µM]	-13.5[16.7 µM]	-0.3[16.7 µM]	-12.1[16.7 µM]

Laid out differently: results already given.
Order of results: Cneo AK release	C2C12 statin	N-glyco inh	Yeast UUG start	miR-122 sensor
[42] O=C(C[C@H]1CC[C@@H]2[C@H](COC[C@@H](O)CN2Cc2cccc(C(F)(F)F)c2)O1)NCc1ccc(Cl)cc1
→ 109.8*	0.0	/	/	-11.1[16.7 µM]
[46] O=C(C[C@@H]1CC[C@@H]2[C@H](COC[C@@H](O)CN2Cc2ccc(Oc3ccccc3)cc2)O1)Nc1nccs1
→ -0.4	39.8	/	/	-12.1[16.7 µM]
